Data taken from US20240327525A1 (VIB VZW, published 2024).

Target: human epidermal growth factor receptor on HeLa cells (human)
Experiment: cell-based or functional assay

- cell-surface EGFR signal by flow cytometry, HeLa cells, 50 nM, 24 h, relative to untreated cells: 49%
B1: construct 39 (2x9G8 S54A-GBP-FLAG3His6) (bispecific antibody)
chain: EVQLVESGGGLVQAGGSLRLS[about 100 residues not printed]WGQGTQVTVSSGGGGSGGGGSGGGGSEVQLVESGGGLVQAGGSLRLS[about 100 residues not printed]WGQGTQVTVSSGSGGGGSGGGGSGGGGSQVQLVESGGALVQPGGSLRLSCAASGFPVNRYSMRWYRQAPGKEREWVAGMSSAGDRSSYEDSVKGRFTISRDDARNTVYLQMNSLKPEDTAVYYCNVNVGFEYWGQGTQVTVSSDYKDDDDKDYKDDDDKDYKDDDDKHHHHHH
